This note sets out measurements from patent US4701521A, “Method of effecting cellular uptake of molecules” (The Trustees of Boston University, priority 1979, dated 1987).

Read-outs that look alike come from different tables or passages of the source.

One data set relates to Sarcoma S-180 monolayers. Conditions: reincubation up to 24 hours.
The mark [1] stands for this setting: reincubation 24 hours at 32°, Normal.

In the case of poly-D-lysine [PDL], the “Radioactivity In Cells” value in the data set on BHK(DMN) Ts cells (32°, Transformed) is recorded as 30.1 ng ^125 I-PLL per mg Cell Prot; in the data set on BHK(DMN) Ts cells (38.5°, Normal) it was 20.1 ng ^125 I-PLL per mg Cell Prot; in the data set on BHK(DMN) Ts cells (38.5°, Transformed), 35.7 ng ^125 I-PLL per mg Cell Prot; in the data set on BHK(DMN) Ts cells (setting [1]), 21.5 ng ^125 I-PLL per mg Cell Prot. Moreover, the “Radioactivity In Medium” value was 3.63 ng ^125 I-PLL per mg Cell Prot with BHK(DMN) Ts cells (32°, Transformed); 4.87 ng ^125 I-PLL per mg Cell Prot in the data set on BHK(DMN) Ts cells (38.5°, Normal); 6.06 ng ^125 I-PLL per mg Cell Prot with BHK(DMN) Ts cells (38.5°, Transformed); 3.29 ng ^125 I-PLL per mg Cell Prot with BHK(DMN) Ts cells (setting [1]).

On to poly-L-lysine [PLL], for which the “release of labeled breakdown product into the medium (acid soluble radioactivity)” value in the data set on Sarcoma S-180 monolayers (0.2 μg/ml, MW 115,000, 60 min load) is “increases linearly between 1 and 12 hours”. Moreover, the “cell-associated acid soluble radioactivity” value with Sarcoma S-180 monolayers is “remained essentially constant over a period of 24 hours”. Further, the “Radioactivity In Cells” value is 11.3 ng ^125 I-PLL per mg Cell Prot in the data set with BHK(DMN) Ts cells (32°, Transformed); 11.8 ng ^125 I-PLL per mg Cell Prot with BHK(DMN) Ts cells (38.5°, Normal); 9.7 ng ^125 I-PLL per mg Cell Prot in the data set on BHK(DMN) Ts cells (38.5°, Transformed); 12.4 ng ^125 I-PLL per mg Cell Prot in the data set with BHK(DMN) Ts cells (setting [1]). The “Radioactivity In Medium” value with BHK(DMN) Ts cells (32°, Transformed) is given as 20.4 ng ^125 I-PLL per mg Cell Prot; in the data set on BHK(DMN) Ts cells (38.5°, Normal), 20.6 ng ^125 I-PLL per mg Cell Prot; in the data set with BHK(DMN) Ts cells (38.5°, Transformed), 26.9 ng ^125 I-PLL per mg Cell Prot; with BHK(DMN) Ts cells (setting [1]), 13.6 ng ^125 I-PLL per mg Cell Prot.
